The experiment relates to melanin granules. Put plainly: Rat melasma model: Fontana-Masson staining of melanin granules. The class given is in vivo, SD rats. The note with it: skin collected Day 58, tranexamic acid 5 mg/mL. The text has this:
3.1 Modeling: Before the experiment, on Day 0, SD rats (purchased from Beijing Vital River Experimental Animal Technology Co., Ltd., SPF grade, female, 7-8 weeks old, weighing 200±20 g) were randomly grouped and numbered. The hairs on the backs of animals in each group were shaved using an electric shaver, and the short hairs on the skin were removed with a depilatory cream to fully expose the back skin. The hair removal area was slightly larger than the actual modeling area (5 cm×5 cm). Each rat was depilated once every 2-3 days to ensure that the back skin was fully exposed. On the next day (Day 1), rats in each group were weighed, and the weights were recorded when the electronic scale reading was stable. A progesterone injection was injected intramuscularly at the base of the rat's thigh (alternately between the thighs on both sides), with a drug concentration of 20 mg/mL and an injection dose of 25 mg/kg, once a day. After the intramuscular injection, the rat's back skin was irradiated with ultraviolet light at a wavelength of 280-320 nm. The light source was about 30 cm away from the rat's back skin, and the irradiation time lasted for 60 minutes each time, for a total of 4 weeks. […]

Turning to `NC[C@H]1CC[C@H](C(=O)O)CC1` [tranexamic acid, Tranexamic acid], the “distribution of melanin granules” value was “distributed in a band shape but mainly concentrated in the basal layer and stratum spinosum”.

Source of the values: US20250325526A1, “USE OF TETRAHYDRONAPHTHYRIDINE DERIVATIVE FOR PREPARING PRODUCT FOR IMPROVING HYPERPIGMENTATION” (SCINNOHUB PHARMACEUTICAL CO., LTD, priority 2022, published 2025).
